Assay [1] addresses APP-TAP-AICD (human) (UniProt P05067). In words: streptavidin purification of APP-TAP-AICD from brain homogenate; iTRAQ 116/114, transgenic mouse 75 vs control mouse 72; MALDI-TOF/TOF.
Assay [2] has the same target. The experiment in a line: streptavidin purification of APP-TAP-AICD from brain homogenate; LTQ-FT semiquantitative method, transgenic mouse 75 vs control mouse 72.

Take “Glucose-6-phosphate isomerase (GPI) (Phosphoglucose isomerase) (PGI) (from UniProt P06745 2-558) (enzyme; other documents disagree on this pair)”: the iTRAQ ratio in the assay with APP-TAP-AICD (human) [1] worked out at 4.48.
The substance “Synaptosomal-associated protein 25 (SNAP-25) (Synaptosomal-associated 25 kDa protein) (from UniProt P60879 1-206)” showed a probability that this protein is enriched with APP-TAP-AICD (human) [2] of 0.88. Also, the iTRAQ ratio in the assay with APP-TAP-AICD (human) [1] came to 4.41.
With “Dihydropyrimidinase related protein-2 (DRP-2) (ULIP 2 protein) (from UniProt O08553 1-572) (other; other documents disagree on this pair)”, the iTRAQ ratio with APP-TAP-AICD (human) [1] turned out to be 3.92.
On the same count and under the same terms, in the case of “Sodium/potassium-transporting ATPase alpha-1 chain precursor (Sodium pump 1) (from UniProt Q8VDN2 6-1023) (enzyme; other documents disagree on this pair)” it was 4.71.
